The record followed here is patent US20190345138A1, “HETEROCYCLIC AMIDES AS KINASE INHIBITORS” (GlaxoSmithKline Intellectual Property Development Limited, priority 2016, published 2019).

The experiment deals with T1, RIP1 kinase (Homo sapiens, UniProt Q13546).
T1 sequence (Q13546 1-375 limits assumed): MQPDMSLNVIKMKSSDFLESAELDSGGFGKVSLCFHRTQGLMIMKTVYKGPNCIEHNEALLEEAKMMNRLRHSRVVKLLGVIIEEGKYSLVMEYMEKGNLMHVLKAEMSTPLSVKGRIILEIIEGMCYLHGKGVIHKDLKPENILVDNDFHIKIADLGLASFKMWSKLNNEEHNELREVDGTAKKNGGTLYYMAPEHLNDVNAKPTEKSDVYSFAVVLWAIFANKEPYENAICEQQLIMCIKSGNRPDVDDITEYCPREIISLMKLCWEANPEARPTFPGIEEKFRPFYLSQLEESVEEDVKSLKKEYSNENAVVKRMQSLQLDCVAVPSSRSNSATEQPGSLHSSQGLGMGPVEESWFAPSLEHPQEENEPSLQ
Description: fluorescent polarization based binding assay. The following applies: mean of a minimum of 2 experiments.

Like-named read-outs stand apart in the source and are kept apart here.

`O=C(C1CCN(c2nccc(-c3ccccc3)n2)CC1)N1N=CCC1c1ccccc1` (racemic) [Example 4, (5-phenyl-4,5-dihydro-1H-pyrazol-1-yl)(1-(4-phenylpyrimidin-2-yl)piperidin-4-yl)methanone]: the IC50 (RIP1 kinase, read-out: pIC50 (converted)) is 1 to 31.6 nM.

The molecule `Cc1nnc(-c2cc(N3CCC(C(=O)N4N=CC[C@H]4c4ccccc4)CC3)ncn2)o1` [Example 129, (S)-(1-(6-(5-methyl-1,3,4-oxadiazol-2-yl)pyrimidin-4-yl)piperidin-4-yl)(5-phenyl-4,5-dihydro-1H-pyrazol-1-yl)methanone] displayed an IC50 (pIC50, RIP1 kinase) of 1 to 31.6 nM.
